Measurements reported in ChEMBL document CHEMBL1148390, “Structural analysis and optimization of NK(1) receptor antagonists through modulation of atropisomer interconversion properties” (J Med Chem, 2004).

The chains behind the UniProt entries cited, without tags or fusion partners.
UniProt P79218, whole entry: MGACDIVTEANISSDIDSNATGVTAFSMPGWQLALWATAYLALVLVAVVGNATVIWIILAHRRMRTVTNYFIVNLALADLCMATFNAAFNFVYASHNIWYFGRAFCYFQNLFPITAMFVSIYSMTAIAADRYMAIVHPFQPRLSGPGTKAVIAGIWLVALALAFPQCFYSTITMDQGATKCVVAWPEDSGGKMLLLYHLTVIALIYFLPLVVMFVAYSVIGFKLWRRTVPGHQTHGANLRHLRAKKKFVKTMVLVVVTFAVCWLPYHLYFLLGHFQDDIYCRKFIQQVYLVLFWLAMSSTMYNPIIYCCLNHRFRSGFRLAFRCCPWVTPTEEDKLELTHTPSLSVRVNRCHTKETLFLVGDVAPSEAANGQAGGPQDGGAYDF

What was measured:
[1] = tested on: Substance-P receptor (Oryctolagus cuniculus); conditions: Artery, 10 nM
[2] = tested on: Substance-P receptor (Oryctolagus cuniculus); conditions: Artery, 100 nM
[3] = tested on: Substance-P receptor (Oryctolagus cuniculus); experiment: In vitro binding affinity towards Tachykinin receptor 1 was determined using rabbit pulmonary artery tissues
[4] = molecular target: Substance-K receptor (Oryctolagus cuniculus) (UniProt P79218); experiment: In vitro binding affinity towards Tachykinin receptor 2 using rabbit pulmonary artery tissues
How it was run: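 Functional antagonism in isolated rabbit pulmonary artery (n = 2–6), reported as pKB. NK1 tested against agonist ASMSP with antagonist at 1 nM, or at 100 nM where antagonism was not purely competitive; NK2 tested against agonist BANK with antagonist at 1 μM. Where antagonism was not purely competitive, activity was taken as percent inhibition = 100 – maximum relaxation as % of control.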

[5] = tested on: Substance-K receptor (Oryctolagus cuniculus)

`CCc1c(C#N)cc2ccccc2c1C(=O)N(C)C[C@@H](CCN1CCC(c2ccccc2[S@+](C)[O-])CC1)c1ccc(Cl)c(Cl)c1` (stereo in doubt; form 1) was tested. Which inhibition [1] did it give?
The inhibition was under 10%.

And the inhibition [2]?
The inhibition was 89%.

Which results are given for `COc1c(C#N)cc2ccccc2c1C(=O)N(C)C[C@@H](CCN1CCC(c2ccccc2[S@+](C)[O-])CC1)c1ccc(Cl)c(Cl)c1`?
pKB [3]: 9.5; pKB [4]: 7.5

`CCc1c(C#N)cc2ccccc2c1C(=O)N(C)C[C@@H](CCN1CCC(c2ccccc2[S@+](C)[O-])CC1)c1ccc(Cl)c(Cl)c1` (stereo in doubt; 3) was tested. Which inhibition [2] did it give?
Its inhibition is 62%.

And the pKB [3]?
Its pKB is 9.56.

What does the source list for `CCc1c(C#N)cc2ccccc2c1C(=O)N(C)C[C@@H](CCN1CCC(c2ccccc2[S@+](C)[O-])CC1)c1ccc(Cl)c(Cl)c1` (stereo in doubt; form 2)?
inhibition [1]: 73%; inhibition [2]: 98%

How did the inhibition [2] turn out when `CCc1c(C#N)cc2ccccc2c1C(=O)N(C)C[C@@H](CCN1CCC(c2ccccc2[S@+](C)[O-])CC1)c1ccc(Cl)c(Cl)c1` (stereo in doubt; form 4) was run?
Its inhibition is 51%.

What about the pKB [5] of the same compound?
Its pKB is 7.79.

For `CN(C[C@@H](CCN1CCC(c2ccccc2[S@+](C)[O-])CC1)c1ccc(Cl)c(Cl)c1)C(=O)c1cc(C#N)cc2ccccc12`, which pKB [3] is on record?
Its pKB is 9.

Which inhibition [2] does the source give for `CCc1c(C#N)cc2ccccc2c1C(=O)N(C)C[C@@H](CCN1CCC(c2ccccc2[S@+](C)[O-])CC1)c1ccc(Cl)c(Cl)c1` (stereo in doubt; form 3) here?
The inhibition was 22%.
